# Source: PubChem BioAssay (NCI)
#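 Protocol summary: plate cells (96-well), add compound at 5 concentrations, incubate 48 h, interpolate endpoints linearly. The concentration for 50% growth inhibition is given as GI50. TGI marks complete inhibition of growth.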
# Columns and labels:
# Experiment in all cases: NCI-60 cell line screen, 48 h
# MOLT-4 leukemia = tested on: MOLT-4 leukemia
# MDA-N = tested on: MDA-N
# RXF 393 renal = tested on: RXF 393 renal
# SW-620 colon = tested on: SW-620 colon
# RPMI-8226 leukemia = tested on: RPMI-8226 leukemia
# OVCAR-3 ovarian = tested on: OVCAR-3 ovarian
# KM12 colon = tested on: KM12 colon
# CCRF-CEM leukemia = tested on: CCRF-CEM leukemia
# HS 578T breast = tested on: HS 578T breast
# K-562 leukemia = tested on: K-562 leukemia
# T-47D breast = tested on: T-47D breast
# NCI/ADR-RES ovarian = tested on: NCI/ADR-RES ovarian
# A498 renal = tested on: A498 renal
# UACC-62 melanoma = tested on: UACC-62 melanoma
# SK-MEL-5 melanoma = tested on: SK-MEL-5 melanoma
# SR leukemia = tested on: SR leukemia
# SNB-75 CNS = tested on: SNB-75 CNS
# MDA-MB-435 = tested on: MDA-MB-435
# HCT-15 colon = tested on: HCT-15 colon
# MCF7 breast = tested on: MCF7 breast
# HL-60(TB) leukemia = tested on: HL-60(TB) leukemia
# LOX IMVI melanoma = tested on: LOX IMVI melanoma
# NCI-H522 lung = tested on: NCI-H522 lung
# BT-549 breast = tested on: BT-549 breast
# HCT-116 colon = tested on: HCT-116 colon
# M14 melanoma = tested on: M14 melanoma
# HT29 colon = tested on: HT29 colon
# CAKI-1 renal = tested on: CAKI-1 renal
# SK-OV-3 ovarian = tested on: SK-OV-3 ovarian
# U251 CNS = tested on: U251 CNS
# EKVX NSCLC = tested on: EKVX NSCLC
# SNB-19 CNS = tested on: SNB-19 CNS
# SK-MEL-2 melanoma = tested on: SK-MEL-2 melanoma
# COLO 205 colon = tested on: COLO 205 colon
# OVCAR-4 ovarian = tested on: OVCAR-4 ovarian
# A549 NSCLC = tested on: A549 NSCLC
# MDA-MB-231 breast = tested on: MDA-MB-231 breast
# HOP-92 NSCLC = tested on: HOP-92 NSCLC
# NCI-H23 lung = tested on: NCI-H23 lung
# HOP-62 NSCLC = tested on: HOP-62 NSCLC
# HCC-2998 colon = tested on: HCC-2998 colon
# ACHN renal = tested on: ACHN renal
# PC-3 prostate = tested on: PC-3 prostate
# TK-10 renal = tested on: TK-10 renal
# IGROV1 ovarian = tested on: IGROV1 ovarian
# SF-539 CNS = tested on: SF-539 CNS
# OVCAR-8 ovarian = tested on: OVCAR-8 ovarian
# NCI-H322M lung = tested on: NCI-H322M lung
# SF-295 CNS = tested on: SF-295 CNS
# NCI-H460 lung = tested on: NCI-H460 lung
# UACC-257 melanoma = tested on: UACC-257 melanoma
# SF-268 CNS = tested on: SF-268 CNS
# UO-31 renal = tested on: UO-31 renal
# SK-MEL-28 melanoma = tested on: SK-MEL-28 melanoma
# SN12C renal = tested on: SN12C renal
# OVCAR-5 ovarian = tested on: OVCAR-5 ovarian
# DU-145 prostate = tested on: DU-145 prostate
# 786-0 renal = tested on: 786-0 renal
# NCI-H226 lung = tested on: NCI-H226 lung
smiles,measurement,setting,value
C[C@H](O)[C@H]1/C=C/C=C\C(=O)O[C@@H]2C[C@H]3O[C@@H]4[C@@H]5O[C@]5(C)CCC4(COC(=O)[C@H]4O[C@]4(C)[C@@H](O)CO1)[C@]2(C)[C@]31CO1 (stereo partly drawn),TGI,MOLT-4 leukemia,0.215 µM
same,GI50,MDA-N,0.0169 µM
same,TGI,MDA-N,0.0612 µM
same,TGI,RXF 393 renal,0.037 µM
same,TGI,SW-620 colon,3.26 µM
same,TGI,RPMI-8226 leukemia,0.269 µM
same,TGI,OVCAR-3 ovarian,1.33 µM
same,TGI,KM12 colon,0.239 µM
same,GI50,CCRF-CEM leukemia,0.0358 µM
same,TGI,CCRF-CEM leukemia,0.24 µM
same,TGI,HS 578T breast,0.0441 µM
same,GI50,K-562 leukemia,< 0.01 µM
same,TGI,K-562 leukemia,23.8 µM
same,TGI,T-47D breast,0.0717 µM
same,GI50,NCI/ADR-RES ovarian,1.74 µM
same,TGI,NCI/ADR-RES ovarian,19.5 µM
same,TGI,A498 renal,0.438 µM
same,TGI,UACC-62 melanoma,0.152 µM
same,TGI,SK-MEL-5 melanoma,0.0169 µM
same,GI50,SR leukemia,0.0125 µM
same,TGI,SR leukemia,0.215 µM
same,TGI,SNB-75 CNS,0.101 µM
same,GI50,MDA-MB-435,0.0222 µM
same,TGI,MDA-MB-435,0.111 µM
same,TGI,HCT-15 colon,0.571 µM
same,GI50,MCF7 breast,0.0134 µM
same,TGI,MCF7 breast,0.239 µM
same,TGI,HL-60(TB) leukemia,0.219 µM
same,TGI,LOX IMVI melanoma,0.0155 µM
same,TGI,NCI-H522 lung,0.011 µM
same,TGI,BT-549 breast,0.0526 µM
same,TGI,HCT-116 colon,0.0166 µM
O=[N+]([O-])C(F)(CN(COCN(CC(F)([N+](=O)[O-])[N+](=O)[O-])CC(F)([N+](=O)[O-])[N+](=O)[O-])CC(F)([N+](=O)[O-])[N+](=O)[O-])[N+](=O)[O-],GI50,M14 melanoma,1.56 µM
same,TGI,M14 melanoma,3.22 µM
same,GI50,MOLT-4 leukemia,1.18 µM
same,TGI,MOLT-4 leukemia,3.9 µM
same,GI50,HT29 colon,1.31 µM
same,TGI,HT29 colon,3.2 µM
same,GI50,CAKI-1 renal,1.55 µM
same,TGI,CAKI-1 renal,4.42 µM
same,GI50,MDA-N,0.231 µM
same,TGI,MDA-N,0.736 µM
same,GI50,SK-OV-3 ovarian,6.58 µM
same,TGI,SK-OV-3 ovarian,15.1 µM
same,GI50,RXF 393 renal,3.33 µM
same,TGI,RXF 393 renal,20.4 µM
same,GI50,SW-620 colon,0.777 µM
same,TGI,SW-620 colon,2.56 µM
same,GI50,RPMI-8226 leukemia,0.506 µM
same,TGI,RPMI-8226 leukemia,2.46 µM
same,GI50,U251 CNS,0.677 µM
same,TGI,U251 CNS,2.22 µM
same,GI50,OVCAR-3 ovarian,1.91 µM
same,TGI,OVCAR-3 ovarian,3.92 µM
same,GI50,EKVX NSCLC,1.91 µM
same,TGI,EKVX NSCLC,5.56 µM
same,GI50,KM12 colon,0.315 µM
same,TGI,KM12 colon,0.659 µM
same,GI50,CCRF-CEM leukemia,0.37 µM
same,TGI,CCRF-CEM leukemia,1.58 µM
same,GI50,HS 578T breast,2.66 µM
same,TGI,HS 578T breast,6.67 µM
same,GI50,K-562 leukemia,0.363 µM
same,TGI,K-562 leukemia,1.49 µM
same,GI50,SNB-19 CNS,4.82 µM
same,TGI,SNB-19 CNS,13.7 µM
same,GI50,SK-MEL-2 melanoma,2.32 µM
same,TGI,SK-MEL-2 melanoma,6.92 µM
same,GI50,T-47D breast,2.91 µM
same,TGI,T-47D breast,8.54 µM
same,GI50,COLO 205 colon,0.445 µM
same,TGI,COLO 205 colon,1.68 µM
same,GI50,NCI/ADR-RES ovarian,1.24 µM
same,TGI,NCI/ADR-RES ovarian,3.58 µM
same,GI50,OVCAR-4 ovarian,2.52 µM
same,TGI,OVCAR-4 ovarian,7.12 µM
same,GI50,A549 NSCLC,4.46 µM
same,TGI,A549 NSCLC,14.8 µM
same,GI50,A498 renal,5.37 µM
same,TGI,A498 renal,11.6 µM
same,GI50,MDA-MB-231 breast,0.23 µM
same,TGI,MDA-MB-231 breast,1.02 µM
same,GI50,HOP-92 NSCLC,0.452 µM
same,TGI,HOP-92 NSCLC,1.59 µM
same,GI50,UACC-62 melanoma,1.72 µM
same,TGI,UACC-62 melanoma,3.77 µM
same,GI50,SK-MEL-5 melanoma,1.05 µM
same,TGI,SK-MEL-5 melanoma,2.81 µM
same,GI50,NCI-H23 lung,1.88 µM
same,TGI,NCI-H23 lung,4.64 µM
same,GI50,HOP-62 NSCLC,4.9 µM
same,TGI,HOP-62 NSCLC,9.58 µM
same,GI50,SNB-75 CNS,2.24 µM
same,TGI,SNB-75 CNS,5.9 µM
same,GI50,HCC-2998 colon,3.17 µM
same,TGI,HCC-2998 colon,6.05 µM
same,GI50,ACHN renal,0.334 µM
same,TGI,ACHN renal,0.66 µM
same,GI50,MDA-MB-435,1.09 µM
same,TGI,MDA-MB-435,3.32 µM
same,GI50,PC-3 prostate,1.68 µM
same,TGI,PC-3 prostate,3.79 µM
same,GI50,TK-10 renal,1.26 µM
same,TGI,TK-10 renal,3.23 µM
same,GI50,IGROV1 ovarian,0.405 µM
same,TGI,IGROV1 ovarian,1.96 µM
same,GI50,SF-539 CNS,1.71 µM
same,TGI,SF-539 CNS,3.16 µM
same,GI50,HCT-15 colon,1.37 µM
same,TGI,HCT-15 colon,4.53 µM
same,GI50,MCF7 breast,1.76 µM
same,TGI,MCF7 breast,4.29 µM
same,GI50,OVCAR-8 ovarian,1.24 µM
same,TGI,OVCAR-8 ovarian,4.68 µM
same,GI50,NCI-H322M lung,8.6 µM
same,TGI,NCI-H322M lung,22.5 µM
same,GI50,HL-60(TB) leukemia,0.159 µM
same,TGI,HL-60(TB) leukemia,0.424 µM
same,GI50,SF-295 CNS,2.85 µM
same,TGI,SF-295 CNS,7.34 µM
same,GI50,NCI-H460 lung,1.99 µM
same,TGI,NCI-H460 lung,5.29 µM
same,GI50,LOX IMVI melanoma,1.09 µM
same,TGI,LOX IMVI melanoma,2.63 µM
same,GI50,UACC-257 melanoma,2.35 µM
same,TGI,UACC-257 melanoma,6.15 µM
same,GI50,SF-268 CNS,2.51 µM
same,TGI,SF-268 CNS,6.82 µM
same,GI50,UO-31 renal,0.712 µM
same,TGI,UO-31 renal,1.63 µM
same,GI50,NCI-H522 lung,0.193 µM
same,TGI,NCI-H522 lung,0.402 µM
same,GI50,SK-MEL-28 melanoma,1.33 µM
same,TGI,SK-MEL-28 melanoma,3.21 µM
same,GI50,SN12C renal,0.0319 µM
same,TGI,SN12C renal,0.164 µM
same,GI50,OVCAR-5 ovarian,3.15 µM
same,TGI,OVCAR-5 ovarian,7.33 µM
same,GI50,DU-145 prostate,1.72 µM
same,TGI,DU-145 prostate,4.11 µM
same,GI50,BT-549 breast,1.63 µM
same,TGI,BT-549 breast,4.43 µM
same,GI50,HCT-116 colon,0.878 µM
same,TGI,HCT-116 colon,2.31 µM
same,GI50,786-0 renal,0.385 µM
same,TGI,786-0 renal,1.14 µM
same,GI50,NCI-H226 lung,3.65 µM
same,TGI,NCI-H226 lung,8.15 µM
